Reference: publication PMC3097272

Target: rabbit skeletal muscle myosin II (rabbit) (UniProt Q28641)

actin activated myosin ATPase activity, myosin alone: KM: 1.15 µM
actin activated myosin ATPase activity, myosin alone: Vmax: 2.39 s⁻¹
actin activated myosin ATPase activity, myosin and HGAL: KM: 1.39 µM
actin activated myosin ATPase activity, myosin and HGAL: Vmax: 2.49 s⁻¹
Substance: rabbit skeletal muscle F-actin, pyrene-labeled (from UniProt P68135 1-377) (natural protein)
